Experimental data published in US20230064363A1, “MATURATION OF SPERMATOGONIAL CELLS IN VITRO BT GROWTH FACTORS AND HORMONES” (B.G. Negev Technologies & Applications Ltd., at Ben-Gurion …, priority 2020, published 2023).

Tested on: spermatogonial cells isolated from CP-treated immature mice
Assay: In vitro culture in MCS of seminiferous tubule cells from CP-treated immature mice; marker-positive cells by immunofluorescence staining
Format: cell-based
[1] = after 4-5 weeks culture in MCS, FSH 7.5 IU/ml, IL-1α 20 pg/ml or TNF-α 20 pg/ml from the beginning, testosterone 10^−7 M at the last week

FSH: follicle stimulating hormone (Serono), 7.5 IU/ml
ACROSIN (meiotic/postmeiotic marker), percentage of stained cells [1]: 43.92%
BOULE (meiotic marker), percentage of stained cells [1]: 20.6%
C-KIT (pre-meiotic marker), percentage of stained cells [1]: 22.42%
CD9 (pre-meiotic marker), percentage of stained cells [1]: 25.62%
CREM (meiotic marker), percentage of stained cells [1]: 35.16%
GFR-a (pre-meiotic marker), percentage of stained cells [1]: 18.97%
VASA (pre-meiotic marker), percentage of stained cells [1]: 24.04%
a-6-INTG (pre-meiotic marker), percentage of stained cells [1]: 18.8%
percentage of premeiotic, meiotic and meiotic/postmeiotic examined cells developed in MCS (compared to cells cultured in control medium): did not show any significant effect
